## AlphaSeq binding of Ab-14 heavy chain variants to a spike HR2 peptide

Values reported by Engelhart et al. 2022, doi:10.1038/s41597-022-01779-4 (FLAb copy).

The target is the same throughout: PDVDLGDISGINAS, from the HR2 region of SARS-CoV-2 spike.

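The parent was found by panning a naive human phage display library on the peptide. In library AAYL49, one, two or three CDR residues were substituted; doubles and triples were drawn at random. AlphaSeq pools MATa yeast showing the antibodies with MATalpha yeast showing the peptide. Binding brings cells together so that they mate, and sequencing counts the barcode pairs among the diploids. Scores were corrected for input abundance and mapped to Kd with protein pairs of known affinity run in the same pool. The assay was run in three technical replicates.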

The variants keep the light chain, the linker and the frameworks of Ab-14 (scFv order VH, a (GGGGS)3 linker, VL).
VH: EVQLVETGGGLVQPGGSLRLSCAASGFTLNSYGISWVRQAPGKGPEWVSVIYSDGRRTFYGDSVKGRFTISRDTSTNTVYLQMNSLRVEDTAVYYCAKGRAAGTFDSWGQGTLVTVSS
VL: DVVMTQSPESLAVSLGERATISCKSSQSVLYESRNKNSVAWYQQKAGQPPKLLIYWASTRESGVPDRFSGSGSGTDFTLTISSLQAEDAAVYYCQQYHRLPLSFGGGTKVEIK

Sequences are complete VH domains. Numbers give log10(Kd / nM), so 0 is 1 nM and 3 is 1 µM. Smaller is tighter. Replicates are averaged; those with no signal do not enter the mean. "nd" means that the variant was in the library but no mating with the target was seen in any replicate; the authors take this as a sign of poor binding, and no number exists. Nonspecific signal, from three strains lacking the peptide, appeared in 15% of pairings of library AAYL49, centred on 4.06 (5% of these signals below 2.83); values are not corrected for it. Also given: how often the same scFv was detected with the empty control strains. For reference, the parent read 0.65 as the reference entry and 4.11 (one replicate of three) as a member of this library.

VH	mean, log10 nM	replicates with signal	empty controls
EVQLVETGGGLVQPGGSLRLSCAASGFTLNSYGISWVRQAPGKGPEWVSVIYSDGRRTFYYDSVKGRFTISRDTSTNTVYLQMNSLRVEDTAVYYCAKGRAAGTMDSWGQGTLVTVSS	nd	0/3	1/9
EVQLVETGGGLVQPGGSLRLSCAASGFTLNWYGISWVRQAPGKGPEWVSVIYSDGRRTFYGDGVCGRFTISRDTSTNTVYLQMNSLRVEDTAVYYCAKGRAAGTFDSWGQGTLVTVSS	4.84	2/3	4/9
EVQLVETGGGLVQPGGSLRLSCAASGFTLNSYGISWVRQAPGKGPEWVSVIYGDGRRTFYGDWVKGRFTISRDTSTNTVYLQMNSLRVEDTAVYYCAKGRAFGTFDSWGQGTLVTVSS	nd	0/3	0/9
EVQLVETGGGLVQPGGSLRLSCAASGWTLNSYGISWVRQAPGKGPEWVSVIYSDGRRTFNGDSVKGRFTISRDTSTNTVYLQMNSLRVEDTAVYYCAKFRAAGTFDSWGQGTLVTVSS	nd	0/3	1/9
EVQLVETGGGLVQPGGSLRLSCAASGFTLNSYQISWVRQAPGKGPEWVSVIYSDGRDTFYGDSVKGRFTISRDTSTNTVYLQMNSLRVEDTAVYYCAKGRAAGTFDSWGQGTLVTVSS	nd	0/3	3/9
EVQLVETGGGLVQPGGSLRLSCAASGFTANSYGISWVRQAPGKGPEWVSVIYPDGRRTFYGESVKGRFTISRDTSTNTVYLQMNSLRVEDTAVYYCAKGRAAGTFDSWGQGTLVTVSS	3.40	1/3	1/9
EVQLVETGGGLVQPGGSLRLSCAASGFTLNSVGISWVRQAPGKGPEWVSTIYSDGRRTFYQDSVKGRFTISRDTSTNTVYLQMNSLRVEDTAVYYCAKGRAAGTFDSWGQGTLVTVSS	nd	0/3	1/9
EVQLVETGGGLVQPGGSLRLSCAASGFTLASYGISWVRQAPGKGPEWVSVIYSDPRRTFYGDSVKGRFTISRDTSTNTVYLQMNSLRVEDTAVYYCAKGRAAGAFDSWGQGTLVTVSS	2.54	1/3	0/9
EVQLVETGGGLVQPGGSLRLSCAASGFTLVSYWISWVRQAPGKGPEWVSVIYSDGRRTFYGDSVKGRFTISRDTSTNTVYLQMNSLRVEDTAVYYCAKGRAAGTFDSWGQGTLVTVSS	nd	0/3	0/9

The remaining entries, values ahead:

mean, log10 nM	replicates with signal	empty controls	VH
4.14	2/3	1/9	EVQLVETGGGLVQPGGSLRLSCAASGFTLNSYDIKWVRQAPGKGPEWVSVIYSDGRRTFTGDSVKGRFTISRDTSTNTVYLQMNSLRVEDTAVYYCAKGRAAGTFDSWGQGTLVTVSS
4.97	2/3	6/9	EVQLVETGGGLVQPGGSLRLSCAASGFTLNSYGISWVRQAPGKGPEWVSAISSDGRRTFYGDSVKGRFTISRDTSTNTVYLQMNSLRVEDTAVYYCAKGRAAGTFDSWGQGTLVTVSS
nd	0/3	1/9	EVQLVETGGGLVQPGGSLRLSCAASGHTLNSYGISWVRQAPGKGPEWVSVIYDDGRRTFYGDSVKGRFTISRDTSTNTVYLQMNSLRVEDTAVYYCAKGRAAGTFDSWGQGTLVTVSS
3.61	2/3	4/9	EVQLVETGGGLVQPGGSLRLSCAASGFTLNSYGISWVRQAPGKGPEWVSVIYEDGRRTFYGDSVKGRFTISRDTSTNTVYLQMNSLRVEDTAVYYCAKGRAVGTFDTWGQGTLVTVSS
nd	0/3	0/9	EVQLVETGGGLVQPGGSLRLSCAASWFTLNSYGISWVRQAPGKGPEWVSVIYSDGRRTFYGDSVRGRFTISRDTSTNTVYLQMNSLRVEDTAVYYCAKSRAAGTFDSWGQGTLVTVSS
3.05	3/3	1/9	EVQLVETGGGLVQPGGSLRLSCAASGFTLNSYGISWVRQAPGKGPEWVSVIYSDGWRTFYGDSAKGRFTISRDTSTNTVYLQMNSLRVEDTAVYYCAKGRAAGTFDTWGQGTLVTVSS
3.03	1/3	0/9	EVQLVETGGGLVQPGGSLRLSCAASWFTLNSFGISWVRQAPGKGPEWVSVIYSDGRRTFYGDSVKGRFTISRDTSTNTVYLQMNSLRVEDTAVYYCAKGRAAGTFDLWGQGTLVTVSS
nd	0/3	1/9	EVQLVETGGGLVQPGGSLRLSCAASGFTLNSYGISWVRQAPGKGPEWVSVIYCDGRRTFYGDSVKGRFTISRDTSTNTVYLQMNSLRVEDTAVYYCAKGNYAGTFDSWGQGTLVTVSS
4.67	3/3	4/9	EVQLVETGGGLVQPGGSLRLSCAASGFTLNSYGISWVRQAPGKGPEWVSVIYSDGFRDFYGDSVKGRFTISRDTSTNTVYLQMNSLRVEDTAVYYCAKGRAFGTFDSWGQGTLVTVSS
nd	0/3	1/9	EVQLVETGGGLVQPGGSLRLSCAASGFTLNSYGISWVRQAPGKGPEWVSVIYLPGIRTFYGDSVKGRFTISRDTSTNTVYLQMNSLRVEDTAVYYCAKGRAAGTFDSWGQGTLVTVSS

The first 3 variants above that were never detected:

VH	mean, log10 nM	replicates with signal	empty controls
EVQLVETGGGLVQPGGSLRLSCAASGFTLNSYGISWVRQAPGKGPEWVSVIYSDGRRTFYYDSVKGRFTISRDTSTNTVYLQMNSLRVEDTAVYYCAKGRAAGTMDSWGQGTLVTVSS	nd	0/3	1/9
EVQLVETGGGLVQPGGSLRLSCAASGFTLNSYGISWVRQAPGKGPEWVSVIYGDGRRTFYGDWVKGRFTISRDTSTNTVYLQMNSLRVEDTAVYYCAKGRAFGTFDSWGQGTLVTVSS	nd	0/3	0/9
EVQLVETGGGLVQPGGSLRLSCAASGWTLNSYGISWVRQAPGKGPEWVSVIYSDGRRTFNGDSVKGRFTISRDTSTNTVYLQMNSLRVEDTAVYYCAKFRAAGTFDSWGQGTLVTVSS	nd	0/3	1/9